Experimental data: paper PMC8868383, “Pharmacokinetics and Pharmacodynamics of Key Components of a Standardized Centella asiatica Product in Cognitively Impaired Older Adults: A Phase 1, Double-Blind, Randomized Clinical Trial” (Antioxidants, 2022)

Test: Plasma pharmacokinetics after single oral administration of CAP
Conditions: all time points, 2 g and 4 g CAP

asiaticoside
Plasma levels: below the lower limit of quantitation (LLOQ)
